1 substance from US20080004302A1, “Novel Compounds” (ASTRAZENECA AB, priority 2006, published 2008) can be followed below.

Amino acid sequences for entries named in this document (tags omitted).
UniProt P11712, whole entry: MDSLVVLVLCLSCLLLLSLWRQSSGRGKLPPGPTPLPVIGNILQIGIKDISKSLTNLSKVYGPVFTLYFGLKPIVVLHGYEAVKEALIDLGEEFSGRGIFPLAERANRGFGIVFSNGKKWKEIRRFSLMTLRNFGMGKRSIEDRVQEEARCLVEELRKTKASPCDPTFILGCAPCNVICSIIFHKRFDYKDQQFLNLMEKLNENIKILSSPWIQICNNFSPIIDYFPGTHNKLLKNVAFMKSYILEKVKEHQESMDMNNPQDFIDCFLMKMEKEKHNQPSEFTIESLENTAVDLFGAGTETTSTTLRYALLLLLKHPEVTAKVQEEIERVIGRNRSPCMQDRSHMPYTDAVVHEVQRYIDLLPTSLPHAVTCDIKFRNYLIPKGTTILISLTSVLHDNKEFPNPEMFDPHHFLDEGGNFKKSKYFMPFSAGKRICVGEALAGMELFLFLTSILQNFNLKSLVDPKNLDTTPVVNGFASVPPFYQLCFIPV

This series deals with human cytochrome P450 (CYP) 2C9 (Homo sapiens, UniProt P11712). The experiment in a line: Cytochrome P450 inhibition assay, 2C9. The note with it: read-out: IC50 range; known inhibitor, positive control; expected IC50 range.

For the substance Sulphaphenazole, the half-maximal inhibitory concentration (IC50) (as a rule, the concentration that inhibits the measured activity by half) is 100 to 1000 nM.
